Test results: PMC9735595, “Advanced EPI-X4 Derivatives Covalently Bind Human Serum Albumin Resulting in Prolonged Plasma Stability” (International Journal of Molecular Sciences, 2022)

Tests used:
[1] = Functional plasma stability assay (remaining activity in CXCR4 antibody competition after incubation in plasma); type: in vitro ADME; conditions: whole human plasma, 37 °C; antibody competition read-out; at least three rounds of plasma incubation
Method: Figure 1 Half-lives of EPI-X4 WSC02 and EPI-X4 JM#21 in human plasma measured by a flow cytometry-based functional assay and mass spectrometry. For the functional assay, WSC02 (a) or JM#21 (b) were spiked into human plasma and incubated at 37 °C. At indicated time points, aliquots were taken and serially diluted in cold PBS. Then, plasma/peptide dilutions were added to CXCR4 expressing SupT1 cells together with a constant concentration of APC-conjugate ECL2-CXCR4 specific antibody 12G5. After 2 h, unbound antibody was removed, and cells were analyzed by flow cytometry. Remaining activity was determined described before. For detection by mass spectrometry, WSC02 (a) or JM#21 (b) were spiked into plasma and incubated at 37 °C. and analyzed in LC-MS/MS. Half-lives were calculated using a one-phase decay model in GraphPad Prism. Curve fits are shown as dashed lines. Data shown are derived from 3 individual rounds of plasma incubation ± SEM. […]
Competition of compounds with an APC-labeled antibody specific for ECL2 of CXCR4 (clone 12G5) was performed in SupT1 cells as described. […] After 2 h at 4 °C, unbound antibody was removed and cells analyzed in flow cytometry (CytoFLEX, Beckman Coulter). Mean fluorescence signals (MFI) in the presence of PBS only was set 100%. […] Half-maximal inhibitory concentrations (IC50) were calculated in GraphPad Prism by nonlinear regression. […]

[2] = due to interaction with FcRn; cited from earlier work
Source text: HSA is a 585 amino acid residues long protein with concentrations ranging from 35 to 50 g/L in plasma. […] HSA carries 17 disulfide bridges and a single free Cys residue (Cys34). Cys34 is the ...

## HSA-JM#21: covalent HSA-EPI-X4 protein-peptide conjugate; JM#21 linked by maleimide-bis-sulfone reagent to the unpaired cysteine of HSA
[1]
  activity over time in human plasma (in words): activity remained constant over time

## HSA-WSC02: covalent HSA-EPI-X4 protein-peptide conjugate; WSC02 linked by maleimide-bis-sulfone reagent to the unpaired cysteine of HSA
[1]
  activity over time in human plasma (in words): activity remained constant over time

## HSA: 585 amino acid residues long plasma protein with a single free Cys residue (Cys34)
[2]
  in vivo circulation half-life: about three weeks
